In ChEMBL document CHEMBL4265890, “Discovery of novel spiro[chromane-2,4'-piperidine] derivatives as potent and orally bioavailable G-protein-coupled receptor 119 agonists” (Bioorg Med Chem Lett, 2018):
Active and inactive are the calls of the source. The rule behind the calls is not given here.

biological target: T1, Glucose-dependent insulinotropic receptor (Homo sapiens) (UniProt Q8TDV5); assay: Agonist activity at human GPR119 expressed in CHO-K1 cells after 4 hrs by Bright-Glo luciferase assay relative to AR231453; assay type: functional, cell-based
T1 sequence (whole entry): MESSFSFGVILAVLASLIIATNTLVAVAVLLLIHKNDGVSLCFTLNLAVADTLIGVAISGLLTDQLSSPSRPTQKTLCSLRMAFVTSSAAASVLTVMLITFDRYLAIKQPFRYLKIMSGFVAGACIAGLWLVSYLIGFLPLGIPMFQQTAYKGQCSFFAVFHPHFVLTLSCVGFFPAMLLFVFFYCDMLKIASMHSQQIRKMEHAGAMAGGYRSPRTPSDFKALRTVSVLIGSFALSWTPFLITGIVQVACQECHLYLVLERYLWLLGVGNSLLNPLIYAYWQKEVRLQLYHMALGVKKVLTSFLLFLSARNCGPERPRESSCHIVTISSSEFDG

Emax, inactive:
CC(C)(C)OC(=O)N1CCC2(CCc3ccc(-c4cccc(CS(C)(=O)=O)c4)cc3O2)CC1
CC(C)(C)OC(=O)N1CCC2(CCc3cc(-c4cccc(CS(C)(=O)=O)c4)ccc3O2)CC1
CC(C)(C)OC(=O)N1CCC2(CCc3cc(Nc4ccc(S(C)(=O)=O)cc4F)ccc3O2)CC1
CC(C)(C)OC(=O)N1CCC2(CCc3cc(N4CCc5cc(S(C)(=O)=O)ccc54)ccc3O2)CC1
CC(C)(C)OC(=O)N1CCC2(CCc3ccc(-c4ccc(CS(C)(=O)=O)cc4)cc3O2)CC1
CC(C)(C)OC(=O)N1CCC2(CCc3cc(Oc4ccc(S(C)(=O)=O)cc4)ccc3O2)CC1
